Results: patent US20060210627A1, “Direct compression formulation and process” (priority 2005, published 2006)

Assay: clinical
Conditions: human, plasma, po, 100 mg

## N#C[C@@H]1CCCN1C(=O)CNC12CC3CC(CC(O)(C3)C1)C2 [vildagliptin, (S)-1-[(3-hydroxy-1-adamantyl)amino]acetyl-2-cyano-pyrrolidine]
  Cmax: 0.505 ± 0.12 µg/mL
